Laboratory results taken from US20070054328A1 (published 2007).

Key:
FLAG-TAPP1 = biological target: T1, FLAG-TAPP1 (UniProt Q9HB21); assay: co-transfection binding assay in 293 cells; glutathione-Sepharose pull-down, anti-FLAG immunoblot
T1 construct: Co-expressed in 293 cells with GST-PDZ domain fusions

FLAG-TAPP2 = biological target: T2, FLAG-TAPP2 (UniProt Q9HB19 1-425, limits assumed); assay: as above
T2 construct: Co-expressed in 293 cells with GST-PDZ domain fusions
T2 sequence (looked up): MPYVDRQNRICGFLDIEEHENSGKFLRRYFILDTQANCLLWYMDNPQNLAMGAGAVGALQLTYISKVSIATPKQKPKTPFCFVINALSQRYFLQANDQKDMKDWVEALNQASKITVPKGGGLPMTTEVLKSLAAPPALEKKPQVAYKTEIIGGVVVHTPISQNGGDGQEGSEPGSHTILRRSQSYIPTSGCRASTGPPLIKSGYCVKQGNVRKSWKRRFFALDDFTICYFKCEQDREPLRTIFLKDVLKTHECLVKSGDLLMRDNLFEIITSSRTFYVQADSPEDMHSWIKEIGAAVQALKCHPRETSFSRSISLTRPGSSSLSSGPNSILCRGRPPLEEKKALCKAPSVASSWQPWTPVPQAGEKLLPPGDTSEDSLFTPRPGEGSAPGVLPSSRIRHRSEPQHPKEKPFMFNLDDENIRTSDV

B1: GST-PTPH1-PDZ domain (other, not shown: small tags and cut ends)
chain (part 1 of 2): MSPILGYWKIKGLVQPTRLLLEYLEEKYEEHLYERDEGDKWRNKKFELGLEFPNLPYYIDGDVKLTQSMAIIRYIADKHNMLGGCPKERAEISMLEGAVLDIRYGVSRIAYSKDFETLKVDFLSKLPEMLKMFEDRLCHKTYLNGDHVTHPDFMLYDALDVVLYMDPMCLDAFPKLVCFKKRIEAIPQIDKYLKSSKYIAWPLQGWQATFGGGDHPPK
chain (part 2 of 2): GKFGFNLKGGVDQKMPLVVSRINPESPADTCIPKLNEGDQIVLINGRDISEHTHDQVVMFIKASRESHSRELALVIRRRAVRS
notes: Amplified from an EST (BG115423, IMAGE clone 4416683); also called PDZ domain of PTPH1; HA tagged PDZ domain of PTPH1
- binding result (FLAG-TAPP1): no binding
- binding result (FLAG-TAPP2): no binding

B2: GST-PTP-MEG1-PDZ domain (other, not shown: small tags and cut ends)
chain (part 1 of 2): B1 chain (part 1 of 2)
chain (part 2 of 2): GIPHDNLVLIRMKPDENGRFGFNVKGGYDQKMPVIVSRVAPGTPADLCVPRLNEGDQVVLINGRDIAEHTHDQVVLFIKASCERHSGELMLLVRPNAVYDVV
notes: Amplified from an EST (BI916937, IMAGE clone 5241923); also called PDZ domain of PTP-MEG1; HA tagged PDZ domain of PTP-MEG1
- binding result (FLAG-TAPP1): no binding
- binding result (FLAG-TAPP2): no binding
